Experiment: In vitro phase I metabolism with mouse hepatic microsomes and NADPH
Type: in vitro ADME
Conditions: PZ-DHA 1.1 µM, 100 mM NADPH, 1 h, 37 °C
Protocol: Figure 2 PZ-DHA undergoes phase I metabolism in the presence of freshly prepared mouse liver microsomes. PZ-DHA (1.1 µM) was incubated with 100 mM NADPH in the presence of mouse liver microsome for 1 h at 37 °C. Metabolites from PZ-DHA (A) hydrolysis, (B) and (C) hydroxylation, and (D) epoxidation were identified.
Mouse hepatic microsomes were freshly isolated from the livers of male C57BL/6 mice, and the entire extraction procedure was carried out at 4 °C. Mouse livers were minced and homogenized in KCl/sucrose phosphate buffer (0.154 M KCl, 0.25 M sucrose in 50 mM potassium phosphate buffer (K2HPO4/KH2PO4) (PPB), pH 7.5). […] The protein concentration was determined using a Bradford assay (R^2 = 1.00), and microsomes were stored at − 80 °C.
Potential in vitro phase I and phase II metabolites of PZ-DHA were detected by incubating PZ-DHA in the presence of freshly-prepared mouse hepatic microsome preparations. Phase I metabolites were determined by incubating 1.1 µM PZ-DHA with 100 mM NADPH in the presence of mouse hepatic microsomes for 1 h at 37 °C. Phase II methylation, glucuronidation, and sulphation of PZ-DHA was determined by incubating 1.1 µM PZ-DHA with 1 mM SAM, 2 mM UDPGA, and 0.5 mM PAPS, respectively, in the presence of freshly prepared mouse hepatic microsome for 1 h at 37 °C (Supplementary information Tables S1–S4). […]

In the case of tetra-epoxy-phloridzin docosahexaenoate, the “phase I metabolite of PZ-DHA identified” value is reported as “identified”.

From paper PMC7721897, “Metabolism and pharmacokinetics of a novel polyphenol fatty acid ester phloridzin docosahexaenoate in Balb/c female mice” (Scientific Reports, 2020)
